From article PMC9515155

Target: human IgE (Calbiochem) (human)
Test: SPR

Kd: 14.9 nM
Substance: omalizumab
